The list shows a part of the results, in another mix than the full data. The source made the active and inactive calls.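 The calls were made as follows: active = percent inhibition above a per-plate cutoff, the plate mean of test compounds plus 3 SD (cut at about 30% in these data); inactive = the rest.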

Protein sequences, listed by entry. Tags and fused reporters are not part of them.
UniProt Q17339, whole entry: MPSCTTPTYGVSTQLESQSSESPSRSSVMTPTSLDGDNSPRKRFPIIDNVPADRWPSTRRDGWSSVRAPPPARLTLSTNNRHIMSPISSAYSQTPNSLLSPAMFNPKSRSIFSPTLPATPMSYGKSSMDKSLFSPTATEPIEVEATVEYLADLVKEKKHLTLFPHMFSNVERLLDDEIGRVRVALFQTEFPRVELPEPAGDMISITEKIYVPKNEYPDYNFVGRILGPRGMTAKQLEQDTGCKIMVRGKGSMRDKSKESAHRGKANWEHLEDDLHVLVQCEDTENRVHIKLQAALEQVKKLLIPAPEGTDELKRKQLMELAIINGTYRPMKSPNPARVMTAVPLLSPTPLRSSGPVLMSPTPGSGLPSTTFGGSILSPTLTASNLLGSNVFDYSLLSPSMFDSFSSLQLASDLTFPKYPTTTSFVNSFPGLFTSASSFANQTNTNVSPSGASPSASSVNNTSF

As a reminder, the inhibition is the change of the read-out against control, counted positive when it falls.

In the experiment the target is Female germline-specific tumor suppressor gld-1 (Caenorhabditis elegans) (UniProt Q17339). The experiment can be described thus: small molecules blocking C. elegans GLD-1 RNA recognition – biochemical, fluorescence polarization, primary screen (AID 2280).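 Also: 0% = DMSO wells with GLD-1 and probe and 100% = wells lacking GLD-1.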 Conditions: purified GLD-1 + fluorescein TGE RNA, at 5.96 µM, active compounds read high. (In general: In fluorescence polarisation assays a small probe gives low polarisation when free and higher when bound to something large.)
Consider `COc1ccccc1OP(C)(=O)Nc1ccc(C)cc1` (stereo unspecified), for which the inhibition is inactive: 10.4%.

The record behind these values is PubChem BioAssay AID2280 (The Scripps Research Institute Molecular Screening Center, 2010).
